{
  "source": "ChEMBL document CHEMBL3271947",
  "about": "“Improved delivery through biological membranes. 3. Delivery of N-methylpyridinium-2-carbaldoxime chloride through the blood-brain barrier in its dihydropyridine pro-drug form” (1976)",
  "key": {"[1]": {"tested_on": "Brain", "test": "Drug uptake in ICR white mouse whole brain at 5 mg/kg, iv after 15 mins by liquid scintillation counting analysis", "conditions": "in vivo, 0.25 h, strain ICR"}, "[2]": {"tested_on": "Brain", "test": "Prodrug conversion in ICR white mouse brain homogenates assessed as 2-PAM at 5 mg/kg, iv after 15 mins by radiochromatography", "conditions": "in vivo, 0.25 h, strain ICR"}, "[3]": {"tested_on": "Mus musculus", "test": "Reactivation of AChE in ICR mouse brain at 30 mg/kg, iv administered 15 mins post DFP challenge measured after 90 mins by Ellman method relative to control", "conditions": "strain ICR"}, "[4]": {"tested_on": "Mus musculus", "test": "Reactivation of AChE in ICR mouse brain at 40 mg/kg, iv administered 15 mins post DFP challenge measured after 90 mins by Ellman method relative to control", "conditions": "strain ICR"}, "[5]": {"tested_on": "Mus musculus", "test": "Reactivation of AChE in ICR mouse brain at 50 mg/kg, iv administered 15 mins post DFP challenge measured after 90 mins by Ellman method relative to control", "conditions": "strain ICR"}, "[6]": {"tested_on": "Mus musculus", "test": "Reactivation of AChE in ICR mouse brain at 20 mg/kg, iv administered 15 mins post DFP challenge measured after 90 mins by Ellman method relative to control", "conditions": "strain ICR"}},
  "data": [
    {"smiles": "CN1CC=CC=C1/C=N/O.Cl", "values": [
      {"measurement": "Drug uptake", "setting": "[1]", "value": 5.03, "unit": "mg%"},
      {"measurement": "Drug metabolism", "setting": "[2]", "value": "metabolite_detected"},
      {"measurement": "Activity", "setting": "[3]", "value": 21.6, "unit": "%"},
      {"measurement": "Activity", "setting": "[4]", "value": 41, "unit": "%"},
      {"measurement": "Activity", "setting": "[5]", "value": 69, "unit": "%"},
      {"measurement": "Activity", "setting": "[6]", "value": 18, "unit": "%"}
    ]},
    {"smiles": "C[n+]1ccccc1/C=N/O.[Cl-]", "values": [
      {"measurement": "Activity", "setting": "[3]", "value": 0, "unit": "%"},
      {"measurement": "Activity", "setting": "[4]", "value": 5.93, "unit": "%"},
      {"measurement": "Activity", "setting": "[5]", "value": 12.1, "unit": "%"}
    ]},
    {"smiles": "C[n+]1ccccc1/C=N/O.[I-]", "values": [
      {"measurement": "Drug uptake", "setting": "[1]", "value": 0.398, "unit": "mg%"}
    ]}
  ]
}
